Measured values published in patent EP3838286B1, “ANTIMICROBIAL PEPTIDE FROM POLISTES GALLICUS VENOM AND ITS ANALOGS” (Latoxan, priority 2019, dated 2021).
Converted amounts (≈) assume the structure as drawn.

What was measured:
[1] = tested on: P. aeruginosa
[2] = tested on: E. coli

CC[C@H](C)[C@H](NC(=O)CN)C(=O)NCC(=O)N[C@@H](C)C(=O)N[C@H](C(=O)N[C@@H](CC(C)C)C(=O)N[C@@H](CCCCN)C(=O)N[C@H](C(=O)N[C@@H](CC(C)C)C(=O)N[C@H](C(=O)N[C@H](C(=O)NCC(=O)N[C@@H](CC(C)C)C(=O)N1CCC[C@H]1C(=O)N[C@@H](C)C(=O)N[C@@H](CC(C)C)C(=O)N[C@H](C(=O)N[C@@H](CO)C(=O)N[C@@H](Cc1c[nH]c2ccccc12)C(=O)N[C@H](C(=O)N[C@@H](CCCCN)C(=O)N[C@@H](CCCNC(=N)N)C(=O)N[C@@H](CCCCN)C(=O)N[C@@H](CCCNC(=N)N)C(=O)N[C@@H](CCC(N)=O)C(=O)N[C@@H](CCC(N)=O)C(N)=O)[C@@H](C)CC)[C@@H](C)CC)[C@@H](C)O)[C@@H](C)O)C(C)C)C(C)C [Melittine, Melittin, reference compound] was tested, and the “MIC (µM) P. aeruginosa” value [1] was 6.25 µM (≈ 17.8 µg/mL), the “MIC (µM) E. coli” value [2] was 6.25 to 12.5 µM and the “MIC against E. coli” value [2] was 12.5 µM (≈ 35.6 µg/mL).
